Numbering of substitutions follows the chain as printed. One block for each binder: values may come before it.
Experiments:
[1] = target: cognate tau peptide of CBTAU-28.1 (not named for ITC and Octet) (human, biotin (position not given) in the Octet measurements); assay: ITC
[2] = target: T1, cognate tau peptide of CBTAU-27.1 (not named for ITC and Octet) (human, biotin (position not given) in the Octet measurements); assay: ITC
T1 chain: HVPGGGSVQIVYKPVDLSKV

B1: CBTAU-28.1 (human IgG1) (antibody, V domains shown)
VH: QVQLQQSGAEVKKPGESLKISCEASGYSFTNYWIGWVRQMPGKGLEWMGIIYPGDSDTRYSPPFQGQVTITADRSITTAYLEWSSLKASDTAMYYCARVGRPSKGGWFDPWGQGTLVTVSS
VL: DIQMTQSPDSLAVSLGERATINCESSQTLLYSSNEKNYLAWYQQKPGQPPKLLISWASTPESGVPDRFSGSGSGTSFTLTISSLQAEDVAVYYCQQYYNSPYTFGQGTRLEIK
- Kd [1]: 0.88 µM

B3: CBTAU-27.1 (human IgG1) (antibody, V domains shown)
VH: QVQLVESGPEMRKPGESLKISCKTSGYIFSDYWTAWVRQLPGKGLQWMGIIYSGDSDTRYHPSVQGHVTMSTDSSLTTAYLQWSSLKASDTGIYYCARLDARVDAGWQLDSWGQGTLVTVSS
VL: DIQLTQSPDSLAVSLGERATINCKSSQSVFSRDNNKNYLAWYQHKSGQPPKLLFFWASSRESGVSDRFSGSGSGTDFTLTIDNLQAEDVALYYCQHYFNTPHNFGQGTKLEIK
- Kd [2]: 0.65 µM

More lines, now with the values ahead:

- Kd [1]: 0.25 µM
B2: dmCBTAU-28.1 (human IgG1), CBTAU-28.1 double mutant Ser32 to Arg / Glu35 to Lys (antibody, V domains shown)
VH: B1 VH
VL: B1 VL with S32R, E35K

- Kd [2]: 0.013 µM
B4: dmCBTAU-27.1 (human IgG1), CBTAU-27.1 double mutant Ser27D to Tyr / Thr94 to Ile (antibody, V domains shown)
VH: B3 VH
VL: IQLTQSPDSLAVSLGERATINCKSSQSVFYRDNNKNYLAWYQHKSGQPPKLLFFWASSRESGVSDRFSGSGSGTDFTLTIDNLQAEDVALYYCQHYFNIPHNFGQGTKLEIK
